These are literature values, as cited in patent US8644910B2, “Imaging protocols” (Biosensors International Group, Ltd., priority 2005, dated 2014).

The conditions of the data set: general somatic scan according to prior art.

For 2-[F-18]fluoro-2-deoxy-D-glucose, the typical whole-body dose is given as 700 mrem.
